Results published in patent US20130261986A1, “METHOD FOR DETERMINING LIPOPHILICITY” (ASTELLAS PHARMA INC., priority 2010, published 2013).

Experiments:
[1] = Lipophilicity (logD7.4) determination according to the present invention, two 1-octanol/phosphate buffer solvent systems in 96 deep well plate, LC/MS; type: physicochemical; conditions: 1-octanol:phosphate buffer pH 7.4 at 5:95 and 50:50, 25° C., 3 hours shaking
[2] = Lipophilicity determination by a shake-flask method (Comparative Example), 1-octanol/phosphate buffer pH 7.4, LC/MS; type: physicochemical; conditions: 1-octanol / phosphate buffer solution pH 7.4, shaken 10 minutes

## Famotidine
[1]
  LogD Inventive determination method (Example): −0.8
[2]
  LogD Shake-flask method (Comparative Example): −0.8
